Measured values from ChEMBL document CHEMBL1909509, “Mepyramine-JNJ7777120-hybrid compounds show high affinity to hH(1)R, but low affinity to hH(4)R” (Bioorg Med Chem Lett, 2011).

The chains behind the UniProt entries cited, without tags or fusion partners.
UniProt P31389, whole entry, looked up: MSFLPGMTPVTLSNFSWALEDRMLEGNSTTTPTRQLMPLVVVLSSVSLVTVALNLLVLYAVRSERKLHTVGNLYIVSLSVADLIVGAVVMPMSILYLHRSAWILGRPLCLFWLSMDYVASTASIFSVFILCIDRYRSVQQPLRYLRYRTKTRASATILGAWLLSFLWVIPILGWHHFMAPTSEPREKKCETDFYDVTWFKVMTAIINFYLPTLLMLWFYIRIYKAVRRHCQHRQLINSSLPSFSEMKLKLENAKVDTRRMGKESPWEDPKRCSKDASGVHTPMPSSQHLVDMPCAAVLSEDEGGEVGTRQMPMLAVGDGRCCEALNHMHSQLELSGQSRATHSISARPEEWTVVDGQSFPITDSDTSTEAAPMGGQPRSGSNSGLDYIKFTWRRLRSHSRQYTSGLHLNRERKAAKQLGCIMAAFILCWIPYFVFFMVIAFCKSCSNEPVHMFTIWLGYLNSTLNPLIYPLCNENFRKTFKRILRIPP

Molecular target: Histamine H1 receptor (Cavia porcellus, UniProt P31389)

## O=C(c1cc2ccccc2[nH]1)N1CCN(CCN2CCC(Nc3nc4ccccc4n3Cc3ccc(F)cc3)CC2)CC1
  pA2: 8.42
